Tested on: CCRF-CEM
Test: In vitro growth inhibition against CCRF-CEM human lymphoblast cells
Format: functional, cell-based
Summary of the method: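 Cells were exposed to drug in vitro for 48 h (L1210 murine leukemia; CCRF-CEM human lymphoblast). The value is the drug concentration giving 50% growth inhibition.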

For `ClCC[Se]c1ccccc1`, the IC50 was 8 µM.
